In ChEMBL document CHEMBL1155446, “Imidazo[4,5-b]pyridine derivatives as inhibitors of Aurora kinases: lead optimization studies toward the identification of an orally bioavailable preclinical development candidate” (J Med Chem, 2010):

Target: T1, Cytochrome P450 2A6 (Homo sapiens, UniProt P11509)
T1 sequence (P11509 whole entry): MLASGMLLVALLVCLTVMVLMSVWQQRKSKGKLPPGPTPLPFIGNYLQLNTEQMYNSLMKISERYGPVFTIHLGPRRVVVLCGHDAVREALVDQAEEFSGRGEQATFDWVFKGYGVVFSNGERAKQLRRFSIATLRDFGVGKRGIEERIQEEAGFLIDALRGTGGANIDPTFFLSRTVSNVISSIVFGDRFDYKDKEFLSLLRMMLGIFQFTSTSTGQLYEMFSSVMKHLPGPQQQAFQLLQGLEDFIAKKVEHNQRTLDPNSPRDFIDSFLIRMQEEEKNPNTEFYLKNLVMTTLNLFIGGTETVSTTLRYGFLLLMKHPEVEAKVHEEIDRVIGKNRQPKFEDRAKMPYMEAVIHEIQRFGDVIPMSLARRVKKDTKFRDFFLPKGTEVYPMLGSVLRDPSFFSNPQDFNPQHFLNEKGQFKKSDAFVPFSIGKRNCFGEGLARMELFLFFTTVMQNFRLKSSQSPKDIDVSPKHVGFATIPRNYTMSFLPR
Assay: Inhibition of CYP2A6 from human liver microsome by LC-MS/MS analysis
Type: ADME, tissue-based

SMILES: Cc1cc(CN2CCN(c3c(Br)cnc4[nH]c(N5CCN(C)CC5)nc34)CC2)no1
- IC50: > 10 µM
